This passage reports Potency results from PubChem BioAssay (Tox21).

By UniProt entry, the sequences of proteins in these tests, tags left out. Where a name states a change or a piece, a line headed by the entry shows the natural chain unless it says otherwise.
UniProt P03372, whole entry, looked up: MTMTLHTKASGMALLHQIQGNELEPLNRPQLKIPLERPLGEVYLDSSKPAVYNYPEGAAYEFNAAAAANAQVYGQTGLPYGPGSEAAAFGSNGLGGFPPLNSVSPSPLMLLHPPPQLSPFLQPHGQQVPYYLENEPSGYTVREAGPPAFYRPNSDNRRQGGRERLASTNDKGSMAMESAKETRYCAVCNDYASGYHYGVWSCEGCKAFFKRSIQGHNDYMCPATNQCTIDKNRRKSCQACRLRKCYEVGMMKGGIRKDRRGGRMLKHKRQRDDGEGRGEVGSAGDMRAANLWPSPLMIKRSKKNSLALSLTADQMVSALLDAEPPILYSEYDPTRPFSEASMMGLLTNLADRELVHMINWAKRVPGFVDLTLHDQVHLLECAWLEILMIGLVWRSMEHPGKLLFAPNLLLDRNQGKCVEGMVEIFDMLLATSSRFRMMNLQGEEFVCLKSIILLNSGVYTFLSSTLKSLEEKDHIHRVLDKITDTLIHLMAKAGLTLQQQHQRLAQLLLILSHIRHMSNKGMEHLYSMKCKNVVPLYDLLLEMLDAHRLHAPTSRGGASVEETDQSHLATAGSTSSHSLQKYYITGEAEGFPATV
UniProt P10635, whole entry, looked up: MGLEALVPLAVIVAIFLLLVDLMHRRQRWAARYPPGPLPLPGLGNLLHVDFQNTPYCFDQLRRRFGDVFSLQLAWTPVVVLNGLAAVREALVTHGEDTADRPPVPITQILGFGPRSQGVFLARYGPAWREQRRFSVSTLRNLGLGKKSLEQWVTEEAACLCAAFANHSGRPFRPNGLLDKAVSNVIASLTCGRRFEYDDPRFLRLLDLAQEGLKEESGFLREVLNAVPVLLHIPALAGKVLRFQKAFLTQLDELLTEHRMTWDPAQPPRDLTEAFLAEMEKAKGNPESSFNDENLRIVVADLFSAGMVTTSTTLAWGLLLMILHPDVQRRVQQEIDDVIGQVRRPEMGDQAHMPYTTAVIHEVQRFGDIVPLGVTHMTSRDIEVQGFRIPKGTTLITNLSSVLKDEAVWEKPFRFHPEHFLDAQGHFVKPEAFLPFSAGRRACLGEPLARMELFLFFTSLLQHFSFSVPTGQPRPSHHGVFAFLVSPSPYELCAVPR
UniProt Q12809: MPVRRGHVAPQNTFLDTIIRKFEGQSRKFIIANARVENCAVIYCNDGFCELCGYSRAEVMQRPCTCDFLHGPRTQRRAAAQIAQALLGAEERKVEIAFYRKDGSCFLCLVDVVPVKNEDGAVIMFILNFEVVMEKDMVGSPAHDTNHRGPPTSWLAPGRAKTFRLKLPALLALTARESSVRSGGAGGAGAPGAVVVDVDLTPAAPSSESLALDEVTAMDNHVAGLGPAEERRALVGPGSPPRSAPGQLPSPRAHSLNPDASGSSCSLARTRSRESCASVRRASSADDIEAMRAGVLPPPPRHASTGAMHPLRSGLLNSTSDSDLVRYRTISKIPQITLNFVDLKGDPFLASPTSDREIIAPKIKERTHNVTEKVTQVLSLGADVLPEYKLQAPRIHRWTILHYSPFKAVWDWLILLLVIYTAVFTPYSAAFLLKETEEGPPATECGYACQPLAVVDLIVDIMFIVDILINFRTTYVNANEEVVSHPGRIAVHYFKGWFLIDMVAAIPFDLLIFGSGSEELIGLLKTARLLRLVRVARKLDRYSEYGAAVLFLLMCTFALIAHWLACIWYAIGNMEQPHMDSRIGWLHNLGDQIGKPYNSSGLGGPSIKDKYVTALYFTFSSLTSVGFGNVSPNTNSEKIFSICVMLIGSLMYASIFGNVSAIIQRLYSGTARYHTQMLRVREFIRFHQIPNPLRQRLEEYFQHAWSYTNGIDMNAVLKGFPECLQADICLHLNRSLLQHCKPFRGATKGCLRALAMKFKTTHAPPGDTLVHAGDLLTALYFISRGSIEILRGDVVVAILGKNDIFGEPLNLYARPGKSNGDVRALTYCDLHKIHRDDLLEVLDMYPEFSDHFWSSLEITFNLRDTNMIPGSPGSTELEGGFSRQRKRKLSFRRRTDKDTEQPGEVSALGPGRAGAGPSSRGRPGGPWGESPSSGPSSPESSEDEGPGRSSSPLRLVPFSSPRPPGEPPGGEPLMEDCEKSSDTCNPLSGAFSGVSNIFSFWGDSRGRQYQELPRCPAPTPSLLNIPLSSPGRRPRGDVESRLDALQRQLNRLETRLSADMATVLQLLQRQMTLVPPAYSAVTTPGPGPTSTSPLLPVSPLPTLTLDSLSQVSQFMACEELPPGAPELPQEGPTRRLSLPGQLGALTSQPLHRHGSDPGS
UniProt P33261, whole entry, looked up: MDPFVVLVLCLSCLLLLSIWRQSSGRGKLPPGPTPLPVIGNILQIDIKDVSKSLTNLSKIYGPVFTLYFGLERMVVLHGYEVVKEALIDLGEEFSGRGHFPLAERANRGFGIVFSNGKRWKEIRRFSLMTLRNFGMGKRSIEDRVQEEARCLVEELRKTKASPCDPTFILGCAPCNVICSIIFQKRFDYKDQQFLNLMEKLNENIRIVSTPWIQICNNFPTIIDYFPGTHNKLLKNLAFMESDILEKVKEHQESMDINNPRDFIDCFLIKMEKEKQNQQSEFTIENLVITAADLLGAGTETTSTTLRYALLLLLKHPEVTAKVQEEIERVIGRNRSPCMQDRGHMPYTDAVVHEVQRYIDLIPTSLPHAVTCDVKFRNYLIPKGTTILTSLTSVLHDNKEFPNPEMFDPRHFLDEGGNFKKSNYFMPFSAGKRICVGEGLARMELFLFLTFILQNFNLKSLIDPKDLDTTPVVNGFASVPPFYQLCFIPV

Several values for one entry are separate records, joined by “and”; a condition that tells them apart may be missing. Equal entries are not always repeated. For some of these results: Most of the hits are listed elsewhere, so they are rarer here than in the full data. The list shows a part of the results, in another mix than the full data. The source holds several records for some structures; these can differ, active in one and inactive in another. Activity calls are given as the source filed them. Unless noted, the call rests on the fitted dose curve; in most records, active means well fitted curve in the direction sought with a large enough effect in the repeat runs; inconclusive means weak or mixed curves; inactive means no such curve, though single readings can be large; an effect the other way counts as inactive or inconclusive.

Assay [1] concerns the target Nuclear receptor subfamily 1 group I member 2 (Homo sapiens) (UniProt O75469). Kind of assay: CYP3A4 induction through human pregnane X receptor (PXR) by small molecules, qHTS assay (AID 1346984). Further: nearly all actives have a fitted effect of over 40% in size. A digest of the protocol: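 Human PXR activation is tracked via CYP3A4 promoter-luciferase in DPX-2 (HepG2) cells. Compounds treat cells for 24hr at 37C, and luminescence is read after One-Glo.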

For assay [2] the target is unchanged. Kind of assay: Human pregnane X receptor (PXR) activation by small molecules, qHTS assay (AID 1346985). Further: nearly all actives have a fitted effect of over 40% in size. Further: potency means the concentration at half of the fitted maximal effect. For orientation: In qHTS, concentration-response curves come from the screen itself.
Assay [3] has as its target Estrogen receptor (Homo sapiens) (UniProt P03372). Kind of assay: qHTS assay to identify small molecule antagonists of the estrogen receptor alpha (ER-alpha) signaling pathway (AID 743069; active means well fitted curve in the direction sought with a large enough effect in the signal ratio in the repeat runs, not every such curve was filed as active; inconclusive means weak or mixed curves, or effect the other way; inactive means no such curve, though single readings can be large or run the other way; the % refers to the signal ratio).
Assay [4] has the same target. Kind of assay: qHTS assay to identify small molecule agonists of the estrogen receptor alpha (ER-alpha) signaling pathway (AID 743075; calls by dose curve;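 further: HEK293 GripTite cells with ER-alpha and UAS-driven beta-lactamase reporter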; further: potency means the concentration at half of the fitted maximal effect).
The target of assay [5] is Cytochrome P450 2D6 (Homo sapiens) (UniProt P10635). Kind of assay: Cytochrome P450 Family 2 Subfamily D Member 6 (CYP2D6) small molecule antagonists: luciferase reporter qHTS assay (AID 1671196). Further: potency means the concentration at half of the fitted maximal effect; nearly all actives have a fitted effect of over 50% in size. Particulars: P450-Glo CYP2D6 enzyme assay, luciferin luminescence, 1 h. A digest of the protocol: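 Quantitative HTS of Tox21 chemicals against CYP2D6 using a luminescent proluciferin substrate. After NADPH addition, 1 h room-temperature reaction; luminescence recorded 20 min post detection reagent.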
Background: A reporter such as luciferase makes a cellular process visible.

Assay [6] has as its target Voltage-gated inwardly rectifying potassium channel KCNH2 (Homo sapiens) (UniProt Q12809). Kind of assay: Human Ether-a-go-go-Related Gene (hERG) channel small molecule antagonists: fluorescence cell-based qHTS assay (AID 1671200). Further: potency means the concentration at half of the fitted maximal effect; nearly all actives have a fitted effect of over 50% in size. Particulars: hERG-U2OS cells, FluxOR thallium flux fluorescence. Summed up:
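Read-out: thallium influx as a surrogate for potassium, tracked as fluorescence (480 nm ex/540 nm em) every second for 2 min after Stimulus Buffer addition in dye-loaded hERG-U2OS cells.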
For orientation: The hERG channel carries a current that helps repolarise heart muscle cells.

Assay [7] addresses Cytochrome P450 2C19 (Homo sapiens) (UniProt P33261). Kind of assay: Cytochrome P450 Family 2 Subfamily C Member 19 (CYP2C19) small molecule antagonists: luciferase reporter qHTS assay (AID 1671197). Further: potency means the concentration at half of the fitted maximal effect; nearly all actives have a fitted effect of over 65% in size. The conditions noted are these: P450-Glo CYP2C19 enzyme, luciferin luminescence, 1 h. Summed up:
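Compounds were tested on CYP2C19 activity via proluciferin conversion to luciferin. The 37C, 1 h reaction followed NADPH addition; detection reagent stopped it.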

Regarding `CN1CCC[C@@H]1Cc1c[nH]c2ccc(CCS(=O)(=O)c3ccccc3)cc12`, the Potency result in assay [1] was “inactive”. The Potency in assay [2] was active: 15.8 µM.

Take `NC(=O)CC[C@@H]1NC(=O)[C@H](Cc2ccccc2)NC(=O)[C@H](Cc2ccc(O)cc2)NC(=O)[C@@H](N)CSSC[C@@H](C(=O)N2CCC[C@H]2C(=O)N[C@@H](CCCN=C(N)N)C(=O)NCC(N)=O)NC(=O)[C@H](CC(N)=O)NC1=O`: the Potency result in assay [3] is “inactive”. In assay [4], the Potency is active: 8.49 µM [inconclusive] and inactive.

`CC(C)(C)c1ccc(C(=O)CCCN2CCC(OC(c3ccccc3)c3ccccc3)CC2)cc1`: the Potency entry in assay [2] is “inactive”.

Regarding `C#C[C@]1(O)CC[C@H]2[C@@H]3CCC4=Cc5oncc5C[C@]4(C)[C@H]3CC[C@@]21C`, in assay [5], the Potency was active: 20 µM and active: 12.3 µM.

Turning to `C1CCC(C(CC2CCCCN2)C2CCCCC2)CC1` (stereo unspecified), the Potency in assay [6] was active: 8.49 µM.

Take `NC1=NCC2c3ccccc3Cc3ccccc3N12` (stereo unspecified): the Potency entry in assay [1] and in assay [2] was “inactive” in each case.

`OC(Cn1cncn1)(Cn1cncn1)c1ccc(F)cc1F`: in assay [7], the Potency was active: 2.85 µM and active: 3.17 µM and active: 7.76 µM.

For `CCCCc1ncc(/C=C(\Cc2cccs2)C(=O)O)n1Cc1ccc(C(=O)O)cc1`, the Potency entry in assay [1] and in assay [2] was “inactive” each time.

Regarding `NC(=O)N1c2ccccc2CC(=O)c2ccccc21`, the Potency result in assay [1] and in assay [2] was “inactive” in each case.

Regarding `CC1CC(OC(=O)C(O)c2ccccc2)CC(C)(C)N1C` (stereo unspecified), the Potency result in assay [1] and in assay [2] was “inactive” in each case.
